Measurements: patent US6730699B2, “Water soluble paclitaxel derivatives” (priority 2001, dated 2004)
Like-named read-outs stand apart in the source and are kept apart here.

Tests used:
[1] = not given; remark: listed apart in the source
[2] = not given; remark: listed apart in the source
[3] = sodium salt of DTPA-paclitaxel
[4] = single dose intravenous injection, mice
[5] = buffer, pH 9.3

“polyethylene glycol-paclitaxel [PEG-paclitaxel]” gave a half life (phosphate buffer pH 7.4, 37° C.) of 54 min and a half-life (phosphate buffer pH 9.0, 37° C.) of 7.6 min.

With Poly-Glutamic Acid-Paclitaxel [PG-TXL] the hydrolytic stability ([1]; PBS at various pH) was “more stable in acidic solution than in basic solution”, the paclitaxel released ([1]; PBS pH 7.4, 37° C., 3 days) was “about 10%” and the “radioactivity recovered as radioactive paclitaxel” value ([2]; within 48 h after injection) was “less than 1%”. For the same substance, the “radioactivity recovered as [^3H]paclitaxel in plasma” value ([2]; within 144 h after injection) was “less than 0.1%”.

In the case of “diethylenetriaminepentaacetic acid-paclitaxel [DTPA-paclitaxel]”, the solubility [3] is reported as > 20 mg equivalent paclitaxel/ml, the “LD50 (50% lethal dose)” value [4] is reported as “about 110 mg/kg body weight” and the half-life [5] is reported as “about 16 days”.
